Experimental data from publication PMC7860060 (ACS Omega, 2021).

Tests used:
[1] = Dynamic light scattering, hydrodynamic diameter; format: physicochemical; details: DLS, 0.25 mg/mL in 0.1 M PB pH 7.4, 25 °C, average of three measurements
ζ-potential = format: physicochemical; details: 8 mg/mL in 1 mM PB pH 7.4, 25 °C, Malvern Nano-ZS, average of three measurements
[2] = tubular cell damage and peritubular fibrosis; cited from earlier work
[3] = cited from earlier work
[4] = SDS-PAGE of carbamylated proteins; format: physicochemical; details: 10% gel, denatured with SDS 60 °C 5 min, 200 V ∼30 min

Substance	hydrodynamic diameter [1]	ζ-potential (ζ-potential)	nephrotoxicity [2]	association with cardiovascular mortality and sudden cardiac death [3]	SDS-PAGE bands versus native protein [4]
HSA: Albumin from human serum (HSA, lyophilized, fatty-acid-free)	9.4 nm	–7.46 ± 0.65 mV	–	–	–
cHSA-1: in vitro carbamylated HSA, Hcit% 0.54	12.6 nm	–	–	–	–
cHSA-2: in vitro carbamylated HSA, Hcit% 2.7	remained without further change	–10.8 ± 0.44 mV	–	–	–
cHSA: carbamylated human serum albumin, degree of carbamylation not specified	–	–	nephrotoxic	strongly associated with cardiovascular mortality and sudden cardiac death	bands remained unchanged compared to their native protein
